Laboratory results as given in publication PMC7181703, “Using proteolysis-targeting chimera technology to reduce navitoclax platelet toxicity and improve its senolytic activity” (Nature Communications, 2020).
pKi: −log10 of the molar value.

The chains behind the UniProt entries cited, without tags or fusion partners.
UniProt P10415, whole entry: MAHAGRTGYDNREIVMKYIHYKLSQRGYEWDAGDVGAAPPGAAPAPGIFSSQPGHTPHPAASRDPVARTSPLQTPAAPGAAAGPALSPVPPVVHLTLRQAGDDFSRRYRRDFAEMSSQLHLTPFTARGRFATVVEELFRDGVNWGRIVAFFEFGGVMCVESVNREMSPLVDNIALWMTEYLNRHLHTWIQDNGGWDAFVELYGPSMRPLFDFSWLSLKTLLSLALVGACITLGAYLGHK

Biological target: T1, Bcl-2 (Homo sapiens, UniProt P10415)
T1 construct: gene BCL2; Purified recombinant His-tagged Bcl-2
Assay: biochemical
Design: AlphaLISA competitive displacement of biotin-tagged BAD or BIM peptide from His-tagged Bcl-2 family protein
Experimental: Purified recombinant His-tagged Bcl-xl, His-tagged Bcl-2 and His-tagged Bcl-w (Cat. No. SRP0187 for Bcl-xl, Cat. No. SRP0186 for Bcl-2 and Cat. No. B1059 for Bcl-w, Sigma-Aldrich) were incubated with increasing concentrations of compounds and a fixed concentration of biotin-tagged BAD (Cat No. SQ-ASPE-66592-1, AnaSpec, Fremont, CA) (for Bcl-xl) or BIM (Cat. No. SQ-ASPE-66592-2, AnaSpec) (for Bcl-2 and Bcl-w) peptides to a final volume of 40 µL in 96-well PCR plates. After 24 h incubation, 5 µL 6X His-Acceptor beads (final concentration 20 µg/mL) (Cat. No. AL128M, Perkin-Elmer, Waltham, MA, USA) were added to each well and incubated for 1 h. Thereafter, 5 µL streptavidin-donor beads were added (final concentration of 20 µg/mL) (Cat. No. 6760002, Perkin-Elmer) to each well and incubated for 30 min. At the end of the incubation period, 17 µL of each sample was transferred into adjacent wells of 384-well proxy plate (Cat. No. 6008280, Perkin-Elmer). The plate was scanned using Alpha program on a Biotek’s Synergy Neo2 multi-mode plate reader (Winooski, VT, USA). Gen5 version 3.04 software (BioTek, USA) was used for the AlphaLISA signal measurements. The inhibition constant (Ki) was calculated using non-linear regression, one site, competitive binding, fit Ki function on GraphPad Prism 7 software based on experimentally determined Kd for each protein/peptide pair.

CC1(C)CCC(c2ccc(Cl)cc2)=C(CN2CCN(c3ccc(C(=O)NS(=O)(=O)c4ccc(N[C@H](CCN5CCOCC5)CSc5ccccc5)c(S(=O)(=O)C(F)(F)F)c4)cc3)CC2)C1 [ABT263]
pKi: 8.99
